Here are results for 5 compounds from US7329681B2, “Inhibitors of IMPDH enzyme” (Vertex Pharmaceuticals Incorporated, priority 1996, dated 2008).

Usually Ki stands for a dissociation constant, usually derived from enzyme kinetics or from competition with a known ligand. A low value points to a stronger hold on the target.

The target of this experiment is IMPDH human type II (Homo sapiens, UniProt P12268). Put plainly: IMPDH activity inhibition assay (spectrophotometric, NADH formation at 340 nm). The experiment is classed as biochemical. The settings on record: 15 to 50 nM enzyme, 37° C., tight-binding fit (Henderson). The method, then:
We have measured the inhibition constants of each compound against IMPDH using an adaptation of the method first reported by […]. Moyed, and […]. Biol. Chem., 226, p. 339 (1957)]. We measured the inhibition constants of the compounds listed in Table III utilizing the following protocol: IMP dehydrogenase activity was assayed following an adaptation of the method first reported by […]. Moyed, H. S. and […]. Biol. Chem. 226, 339]. Enzyme activity was measured spectrophotometrically, by monitoring the increase in absorbance at 340 nm due to the formation of NADH (ε340 is 6220 M^-1 cm^-1). The reaction mixture contained 0.1 M Tris pH 8.0, 0.1 M KCl, 3 mM EDTA, 2 mM DTT, […] and enzyme (IMPDH human type II) at a concentration of 15 to 50 nM. This solution is incubated at 37° C. for 10 minutes. The reaction is started by adding NAD to a final concentration of 0.1 M and the initial rate is measured by following the linear increase in absorbance at 340 nm for 10 minutes. For reading in a standard spectrophotometer (path length 1 cm) the final volume in the cuvette is 1.0 ml. The assay has also been adapted to a 96 well microtiter plate format; in this case the concentrations of all the reagents remain the same and the final volume is decreased to 200 μl. For the analysis of inhibitors, the compound in question is dissolved in DMSO to a final concentration of 20 mM and added to the initial assay mixture for preincubation with the enzyme at a final volume of 2-5% (v/v). The reaction is started by the addition of NAD, and the initial rates measured as above. […] The designation “ND” is used where a given compound was not tested.
As for `Cc1cc(NC(=O)Nc2ccc(-c3cnco3)c(Cl)c2)co1`, the Ki lay in the range of 51 to 1000 nM.
Consider `COc1cc(NC(=O)Nc2cccc(CNC(=O)OC(COCc3ccccc3)COCc3ccccc3)c2)ccc1-c1cnco1`, for which the Ki is 0.01 to 50 nM.
Next, `Nc1cc(NC(=O)Nc2ccc(-c3cnco3)c(Cl)c2)cs1`: 1000 to 10000 nM.
In turn, `O=C(Nc1csc(NO)c1)Nc1ccc(-c2cnco2)c(Cl)c1` gave a Ki of 1000 to 10000 nM.
Next, `O=C(Nc1csc([N+](=O)[O-])c1)Nc1ccc(-c2cnco2)c(Cl)c1`: 1000 to 10000 nM.
